The source made the active and inactive calls. No cut-off for these calls is given here.
Legend:
Format in all cases: functional, cell-based
[1] = target: T1, G-protein coupled receptor 35 (Homo sapiens, UniProt Q9HC97); test: Agonist activity at GPR35 in human HT-29 cells after 1 hr by dynamic mass redistribution assay in presence of 64 uM GPR35 antagonist SPB05142
[2] = target: T1, G-protein coupled receptor 35; test: Agonist activity at GPR35 in human HT-29 cells after 1 hr by dynamic mass redistribution assay in presence of GPR35 antagonist SPB05142
[3] = target: T1, G-protein coupled receptor 35; test: Agonist activity at GPR35 in human U20S cells expressing beta-lactamase and GPR35-GA14-VP16 transcription factor fusion protein assessed as transcriptional activation after 5 hrs by tango beta-arrestin translocation reporter assay relative to zaprinast; conditions: U2OS
Outline: (§1)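 Tango GPR35-bla U2OS cells, which express GPR35–TEV site–Gal4-VP16 and β-arrestin/TEV protease, seeded at 10000 cells/well and cultured overnight. Ligand stimulation for 5 h at 37 °C/5% CO2, then 2 h with LiveBLAzer FRET B/G substrate. Coumarin:fluorescein ratio read as reporter response, doses up to 128 μM, n = 4.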

Protein sequences, listed by entry. Tags and fused reporters are not part of them. Lines headed by an entry give the natural chain unless they say otherwise; changes in a name come on top.
UniProt Q9HC97: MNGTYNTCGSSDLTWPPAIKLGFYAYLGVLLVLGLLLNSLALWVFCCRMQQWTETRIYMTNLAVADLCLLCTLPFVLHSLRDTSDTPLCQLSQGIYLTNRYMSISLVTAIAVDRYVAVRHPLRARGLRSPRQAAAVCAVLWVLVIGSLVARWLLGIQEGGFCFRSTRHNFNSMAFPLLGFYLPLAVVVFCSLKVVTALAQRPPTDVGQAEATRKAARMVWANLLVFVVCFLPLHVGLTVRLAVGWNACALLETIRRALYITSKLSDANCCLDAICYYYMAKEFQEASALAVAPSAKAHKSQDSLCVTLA

[4] = target: T1, G-protein coupled receptor 35; test: Agonist activity at GPR35 in human U20S cells expressing beta-lactamase and GPR35-GA14-VP16 transcription factor fusion protein assessed as transcriptional activation up to 128 uM after 5 hrs by tango beta-arrestin translocation reporter assay; conditions: U2OS; outline: as §1
[5] = target: T1, G-protein coupled receptor 35; test: Agonist activity at GPR35 in human HT-29 cells after 1 hr by dynamic mass redistribution assay relative to zaprinast; design: concentration or dose not given beside the values
Outline: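 HT-29 monolayer grown overnight on resonant waveguide grating biosensor plates. Cells washed twice, held in HBSS (20 mM Hepes, pH 7.1) for 1 h at 26 °C, then a 2 min baseline taken before compound addition. Response recorded as resonant wavelength shift (pm) over 1 h. […] Compounds diluted from 10 mM DMSO stocks.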

Structure (SMILES) | Activity [1] | Activity [2] | Activity [3] | Activity [4] | Activity [5]
CC1=C(C#N)C(=C(C#N)C#N)OC1(C)c1ccc(F)cc1F (stereo not drawn) | Active | Active | inactive | inactive | 99%
CC1=C(C#N)C(=C(C#N)C#N)OC1(C)c1c(F)c(F)c(F)c(F)c1F (stereo not drawn) | inactive | inactive | inactive | inactive | 84%
CCCCc1ccc(C2(C)OC(=C(C#N)C#N)C(C#N)=C2C)cc1 (stereo not drawn) | inactive | inactive | inactive | inactive | 100%

Next, values leading:

Activity [1] | Activity [2] | Activity [3] | Activity [4] | Activity [5] | Structure (SMILES)
inactive | inactive | inactive |  |  | O=C(O)c1cc2sccc2s1
inactive | inactive | inactive | inactive | 81% | CCCCCCCCCCCCCCCc1c(C(=O)O)sc2c(Br)csc12
inactive | inactive | inactive | inactive | inactive | CCOC(=O)c1sc2c(Br)csc2c1C

— ChEMBL document CHEMBL1914282 (J Med Chem, 2011)
